Experimental data: paper PMC4160570, “Effects of proarrhythmic drugs on relaxation time and beating pattern in rat engineered heart tissue” (Basic Research in Cardiology, 2014)

Test system: rat engineered heart tissue (EHT)
Assay: Video-optical analysis of contractile parameters of spontaneously beating rat EHTs (50 nM epinephrine)
Conditions: 1-, 10-, 100-fold FTPC, n = 4–8

In the case of `CCCNCC(O)COc1ccccc1C(=O)CCc1ccccc1` (stereo not shown) [Propafenone], the “significant T2 prolongation (p<0.05 and at least 15 % vs baseline)” value was “Significant T2 prolongations”.
